Values of other authors, collected in patent publication US20220160704A2, “COMPOSITIONS FOR OPIATE AND OPIOID PREVENTION AND REVERSAL, AND METHODS OF THEIR USE” (Torralva Medical Therapeutics LLC, priority 2018, published 2022).

Details: cited from earlier work

## CCC(=O)N(c1ccccc1)C1CCN(CCc2ccccc2)CC1
  pKa: 8.4

Only a part of the results on these compounds is given; other tests are left out.
